Measurements published in ChEMBL document CHEMBL2163252, “Azapeptide analogues of the growth hormone releasing peptide 6 as cluster of differentiation 36 receptor ligands with reduced affinity for the growth hormone secretagogue receptor 1a” (J Med Chem, 2012).

Protein sequences, listed by entry. Tags and fused reporters are not part of them. Lines headed by an entry give the natural chain unless they say otherwise; changes in a name come on top.
UniProt Q07969: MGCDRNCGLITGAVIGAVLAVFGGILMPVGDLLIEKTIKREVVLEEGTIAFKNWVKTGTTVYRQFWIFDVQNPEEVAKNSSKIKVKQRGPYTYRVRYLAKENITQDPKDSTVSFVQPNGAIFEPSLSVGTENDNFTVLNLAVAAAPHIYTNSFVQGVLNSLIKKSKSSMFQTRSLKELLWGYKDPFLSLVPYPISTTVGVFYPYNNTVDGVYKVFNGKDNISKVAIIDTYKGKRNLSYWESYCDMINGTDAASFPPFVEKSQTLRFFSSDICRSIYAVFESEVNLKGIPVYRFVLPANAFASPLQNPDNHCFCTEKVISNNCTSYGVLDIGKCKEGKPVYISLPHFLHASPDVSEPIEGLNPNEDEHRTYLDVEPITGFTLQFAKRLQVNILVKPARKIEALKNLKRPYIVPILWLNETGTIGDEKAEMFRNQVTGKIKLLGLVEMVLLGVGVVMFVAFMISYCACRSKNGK
UniProt Q92847, whole entry: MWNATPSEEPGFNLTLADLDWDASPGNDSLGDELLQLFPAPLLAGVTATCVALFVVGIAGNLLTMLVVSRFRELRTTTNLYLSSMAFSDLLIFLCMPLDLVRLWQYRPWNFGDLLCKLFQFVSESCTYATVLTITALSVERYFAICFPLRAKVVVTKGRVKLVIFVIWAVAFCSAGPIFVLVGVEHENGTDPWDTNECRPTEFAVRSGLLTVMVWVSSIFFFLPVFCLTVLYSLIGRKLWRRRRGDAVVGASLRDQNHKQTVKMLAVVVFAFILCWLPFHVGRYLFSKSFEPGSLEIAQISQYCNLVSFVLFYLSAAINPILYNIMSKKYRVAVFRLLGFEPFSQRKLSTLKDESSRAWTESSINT

Key:
Platelet glycoprotein 4 = Platelet glycoprotein 4 (Rattus norvegicus, UniProt Q07969); test: Displacement of photoactivatable [125I]-Tyr-Bpa-Ala-Hexarelin from CD36 in Sprague-Dawley rat cardiac membranes incubated for 60 mins by densitometry; format: cell membranes, Membrane
[1] = molecular target: Growth hormone secretagogue receptor type 1 (Homo sapiens, UniProt Q92847); test: Displacement of [125I]ghrelin expressed in LLC-PK1 cells incubated for 1 hr by gamma counting method; format: cell-based
In short: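 Membranes from LLC-PK1 cells transiently transfected with GHS-R1a (CaPO₄; harvested 24 h later; freeze/thaw lysis, 10000g), 10 μg protein/tube. Incubated with ¹²⁵I-ghrelin (40,000 cpm) and competitor 10⁻¹² to 10⁻⁵ M, 1 h at RT, in Tris/MgCl₂/EDTA/bacitracin buffer pH 7.3. Nonspecific binding set with 10⁻⁵ M competitor. Bound separated by filtration on PEI-soaked GF/C filters, gamma counted.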

| IC50 (Platelet glycoprotein 4) [nM] | IC50 [1] [nM] | SMILES |
| --- | --- | --- |
| 1800 | – | C[C@H](NC(=O)N(Cc1ccc(O)cc1)NC(=O)C(N)Cc1cnc[nH]1)C(=O)N[C@@H](Cc1c[nH]c2ccccc12)C(=O)N[C@H](Cc1ccccc1)C(=O)N[C@@H](CCCCN)C(N)=O (stereo partly drawn) |
| 36800 | 729 | C[C@H](NC(=O)N(CCc1ccccc1)NC(=O)C(N)Cc1cnc[nH]1)C(=O)N[C@@H](Cc1c[nH]c2ccccc12)C(=O)N[C@H](Cc1ccccc1)C(=O)N[C@@H](CCCCN)C(N)=O (stereo partly drawn) |
